# Yeast mating assay 1: variants of the scFv Ab-14

Reference: Engelhart et al. 2022, doi:10.1038/s41597-022-01779-4. File: FLAb, binding data.

Binding partner: SARS-CoV-2 spike HR2 peptide, sequence PDVDLGDISGINAS.

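Phage display of a naive human antibody library on the peptide gave the parent. The library (AAYL49) carries one to three amino acid substitutions per variant, with no insertions or deletions. The assay is AlphaSeq: two haploid yeast populations carry antibody and antigen on their surface. Mating (16 h, 30 °C) was followed by selection of diploids and sequencing of their barcodes. The ratio of observed to expected reads was calibrated, replicate by replicate, on BCL2-family standards whose Kd was known from biolayer interferometry. The assay was run in three technical replicates.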

Ab-14 is the parent antibody, in scFv form: VH, then the linker GGGGSGGGGSGGGGS, then VL. The light chain is unchanged in all variants.
VH: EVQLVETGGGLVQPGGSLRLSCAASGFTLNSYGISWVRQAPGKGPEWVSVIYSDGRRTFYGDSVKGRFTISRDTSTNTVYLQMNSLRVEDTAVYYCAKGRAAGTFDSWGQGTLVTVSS
VL: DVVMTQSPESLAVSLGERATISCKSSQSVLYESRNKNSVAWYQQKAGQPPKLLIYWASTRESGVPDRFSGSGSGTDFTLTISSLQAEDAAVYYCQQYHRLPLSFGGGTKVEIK

Each variant is given by its three heavy chain CDRs, as the data file delimits them; those of the parent are GFTLNSYGIS, VIYSDGRRTFYGDSVK, GRAAGTFDS. Numbers give log10(Kd / nM), so 0 is 1 nM and 3 is 1 µM. Smaller is tighter. "ND" marks a missing value. The strain was present, yet no cells mated with the target were sequenced in that replicate, which points to weak or no binding. Empty control strains, which show no peptide, gave a signal in 15% of pairings with library AAYL49; the median was 4.06 and 95% of these signals were weaker than 2.83. No background was subtracted. Also given: how often the same scFv was detected with the empty control strains.

For GFTLNCYGIS, VIYSDMRRTFLGDSVK, GRAAGTFDS, the assay gave ND, ND, ND (controls 1 of 9).
For GFTLNSYGIS, VIYSDGRRTWLGDSVK, GRAAGVFDS, the assay gave ND, ND, 3.38 (controls 2 of 9).
For GFTLNSYGGS, VIYSDGRRTIHGDSVK, GRAAGTFDS, the assay gave ND, ND, ND (controls 2 of 9).
For GFTLNSYGIS, VIYSWGRRNFYGDSVK, GRAAGTFDS, the assay gave ND, 5.20, 4.81 (controls 2 of 9).
For GFTLNSYGIE, KIYSDGRRTFYGDSVK, GRAMGTFDS, the assay gave ND, ND, ND (controls 0 of 9).
For GFTENSYVPS, VIYSDGRRTFYGDSVK, GRAAGTFDS, the assay gave ND, ND, ND (controls 0 of 9).
For GFTLNSYGIK, VIYSDGRRTFYGDSVK, GVAAGTFRS, the assay gave ND, ND, 4.17 (controls 1 of 9).
For GFTLNSYGIS, VWYSDGRRTFYGDSYK, GRAAGTFDS, the assay gave 3.75, ND, ND (controls 2 of 9).
For GFTLNSYGIS, VIYSDGRRTFYGMSVK, GRAAGGFVS, the assay gave ND, ND, ND (controls 0 of 9).
For GFTLNWYGNS, VIYSDDRRTFYGDSVK, GRAAGTFDS, the assay gave ND, 5.09, 4.83 (controls 4 of 9).
For GFTLNSYGIS, VIYSYGRRTFYGDSVK, GRAAGFQDS, the assay gave 6.12, 3.02, 5.21 (controls 4 of 9).
For NFTLNSYGQS, VIYSDGRRTFEGDSVK, GRAAGTFDS, the assay gave ND, ND, ND (controls 0 of 9).
For GFTLNSYGWS, VIYSDGRRTVYGDSVK, GRAAGTNDS, the assay gave 5.52, 5.52, ND (controls 5 of 9).
For GFTLNSYGIT, VIMSDGRRTFYGDSVK, GRAAGTEDS, the assay gave ND, 2.54, ND (controls 1 of 9).
For GFTLNSYGIS, VIMSDGRRTFYGDSVN, GRAAGTFDS, the assay gave ND, ND, ND (controls 0 of 9).
For GFHLNSTGIS, VIYSDGRRTFYGDSVK, GRAAGTFDS, the assay gave ND, ND, ND (controls 1 of 9).
For GFTLHSYGIS, VIYSDIRRTFYGDSVK, GRAAGTFDS, the assay gave ND, ND, ND (controls 0 of 9).
For GFCLNSYGIE, VIMSDGRRTFYGDSVK, GRAAGTFDS, the assay gave ND, ND, ND (controls 1 of 9).
For GGTLNSYGIS, VIYSWGRRTFYGDSVK, GRAAHTFDS, the assay gave ND, ND, ND (controls 0 of 9).
For GFTLNSYGIS, VIHSDGRCTIYGDSVK, GRAAGTFDS, the assay gave ND, ND, ND (controls 0 of 9).
For GFTLNSYGIS, VIYSDGRRTEYGPSVK, GRAASTFDS, the assay gave 0.80, 1.05, 0.99 (controls 7 of 9).
For WFMLNSYGIS, VIYSDGRRTFYGDSVK, IRAAGTFDS, the assay gave ND, ND, 2.81 (controls 0 of 9).
For GFWLNSYGIS, VIYSDGRRTFKGQSVK, GRAAGTFDS, the assay gave ND, ND, ND (controls 2 of 9).
For GFTLNSYGIS, KIYSDCRRTFYGVSVK, GRAAGTFDS, the assay gave ND, ND, ND (controls 1 of 9).
For GFTLNSYGIS, HIYSQGRRTFYGDSVK, GRAATTFDS, the assay gave ND, ND, ND (controls 0 of 9).
For GFTLNSYGIS, VIYSDGRRTFYGDDVV, GRAAGTFDS, the assay gave 1.49, 1.84, 1.78 (controls 0 of 9).
For AFTLNSYGIS, VIYSDGFRTFYMDSVK, GRAAGTFDS, the assay gave ND, ND, ND (controls 0 of 9).
For GFTLNAYGIE, VIYSDGRRTFYGDSVK, GRAAITFDS, the assay gave ND, ND, ND (controls 2 of 9).
For GFTLNSFGIS, VIYSDGRRTFYGDSVK, SRAVGTFDS, the assay gave 1.66, 1.66, 2.06 (controls 0 of 9).
For GFTNNSYGIS, VIYSDGRRTFYGDMVM, GRAAGTFDS, the assay gave ND, ND, ND (controls 2 of 9).

Extract of 3 entries:

| CDR-H1 | CDR-H2 | CDR-H3 | replicates, log10 nM | signal with controls |
|---|---|---|---|---|
| GFTLNAYGIE | VIYSDGRRTFYGDSVK | GRAAITFDS | ND, ND, ND | 2 of 9 |
| GFTLNWYGNS | VIYSDDRRTFYGDSVK | GRAAGTFDS | ND, 5.09, 4.83 | 4 of 9 |
| GFTLNSYGIS | VWYSDGRRTFYGDSYK | GRAAGTFDS | 3.75, ND, ND | 2 of 9 |